The target of this assay is T1, NaV1.6 (Mus musculus, UniProt Q9WTU3).
T1 construct: expressed in transfected cells; host or cells: Xenopus laevis oocytes (cRNA injection)
Briefly: Two-electrode voltage clamp on NaV1.6 in Xenopus laevis oocytes. Particulars: 18–22 °C, ND96, mean ± S.E.M., n ≥ 3. The assay is classed as biochemical, human. From the text:
Complementary DNA encoding the NaV-channels was subcloned into the corresponding vector: the α-subunits rNaV1.1/pLCT1(NotI), rNaV1.4/pUI-2(NotI), hNaV1.5/pcDNA3.1(XbaI), mNaV1.6/pLCT(NotI), cockroach Blattella germanica BgNaV1.1/pGH19(NotI), Drosophila melanogaster DmNaV1, Varroa destructor VdNaV1, and the corresponding β-subunits rβ1/pSP64T(EcoRI) and Drosophila melanogaster TipE/pGH19(NotI). The linearized plasmids—respective restriction enzymes are indicated in parentheses—were transcribed using the T7 (for rNaV1.1, rNaV1.4, mNaV1.6, BgNaV1.1, TipE) or the SP6 (for hNaV1.5 and rβ1) mMESSAGE-mMACHINE transcription kit (Ambion, Austin, TX). The harvesting of stage V-VI oocytes from anaesthetized female Xenopus laevis frogs was described previously. Oocytes were injected with 50–70 nl of cRNA at a concentration of 1–3 ng/nl using a micro-injector (Drummond Scientific, Broomall, PA). […]
Whole-cell currents from oocytes were recorded at room temperature (18–22 °C) by the two-electrode voltage clamp technique using a GeneClamp 500 amplifier (Molecular Devices, Sunnyvale, CA) controlled by a pClamp data acquisition system (Molecular Devices). […] All data was analyzed using pClamp Clampfit 10.0 (Molecular Devices®, Downingtown, PA) and Origin 7.5 software (Originlab®, Northampton, MA) and is presented as mean ± standard error (S.E.M) of at least 3 independent experiments (n ≥ 3).
Background: Two-electrode voltage clamp is typically applied to oocytes expressing channels or transporters.

Protein sequences, listed by entry. Tags and fused reporters are not part of them.
UniProt Q9WTU3, whole entry: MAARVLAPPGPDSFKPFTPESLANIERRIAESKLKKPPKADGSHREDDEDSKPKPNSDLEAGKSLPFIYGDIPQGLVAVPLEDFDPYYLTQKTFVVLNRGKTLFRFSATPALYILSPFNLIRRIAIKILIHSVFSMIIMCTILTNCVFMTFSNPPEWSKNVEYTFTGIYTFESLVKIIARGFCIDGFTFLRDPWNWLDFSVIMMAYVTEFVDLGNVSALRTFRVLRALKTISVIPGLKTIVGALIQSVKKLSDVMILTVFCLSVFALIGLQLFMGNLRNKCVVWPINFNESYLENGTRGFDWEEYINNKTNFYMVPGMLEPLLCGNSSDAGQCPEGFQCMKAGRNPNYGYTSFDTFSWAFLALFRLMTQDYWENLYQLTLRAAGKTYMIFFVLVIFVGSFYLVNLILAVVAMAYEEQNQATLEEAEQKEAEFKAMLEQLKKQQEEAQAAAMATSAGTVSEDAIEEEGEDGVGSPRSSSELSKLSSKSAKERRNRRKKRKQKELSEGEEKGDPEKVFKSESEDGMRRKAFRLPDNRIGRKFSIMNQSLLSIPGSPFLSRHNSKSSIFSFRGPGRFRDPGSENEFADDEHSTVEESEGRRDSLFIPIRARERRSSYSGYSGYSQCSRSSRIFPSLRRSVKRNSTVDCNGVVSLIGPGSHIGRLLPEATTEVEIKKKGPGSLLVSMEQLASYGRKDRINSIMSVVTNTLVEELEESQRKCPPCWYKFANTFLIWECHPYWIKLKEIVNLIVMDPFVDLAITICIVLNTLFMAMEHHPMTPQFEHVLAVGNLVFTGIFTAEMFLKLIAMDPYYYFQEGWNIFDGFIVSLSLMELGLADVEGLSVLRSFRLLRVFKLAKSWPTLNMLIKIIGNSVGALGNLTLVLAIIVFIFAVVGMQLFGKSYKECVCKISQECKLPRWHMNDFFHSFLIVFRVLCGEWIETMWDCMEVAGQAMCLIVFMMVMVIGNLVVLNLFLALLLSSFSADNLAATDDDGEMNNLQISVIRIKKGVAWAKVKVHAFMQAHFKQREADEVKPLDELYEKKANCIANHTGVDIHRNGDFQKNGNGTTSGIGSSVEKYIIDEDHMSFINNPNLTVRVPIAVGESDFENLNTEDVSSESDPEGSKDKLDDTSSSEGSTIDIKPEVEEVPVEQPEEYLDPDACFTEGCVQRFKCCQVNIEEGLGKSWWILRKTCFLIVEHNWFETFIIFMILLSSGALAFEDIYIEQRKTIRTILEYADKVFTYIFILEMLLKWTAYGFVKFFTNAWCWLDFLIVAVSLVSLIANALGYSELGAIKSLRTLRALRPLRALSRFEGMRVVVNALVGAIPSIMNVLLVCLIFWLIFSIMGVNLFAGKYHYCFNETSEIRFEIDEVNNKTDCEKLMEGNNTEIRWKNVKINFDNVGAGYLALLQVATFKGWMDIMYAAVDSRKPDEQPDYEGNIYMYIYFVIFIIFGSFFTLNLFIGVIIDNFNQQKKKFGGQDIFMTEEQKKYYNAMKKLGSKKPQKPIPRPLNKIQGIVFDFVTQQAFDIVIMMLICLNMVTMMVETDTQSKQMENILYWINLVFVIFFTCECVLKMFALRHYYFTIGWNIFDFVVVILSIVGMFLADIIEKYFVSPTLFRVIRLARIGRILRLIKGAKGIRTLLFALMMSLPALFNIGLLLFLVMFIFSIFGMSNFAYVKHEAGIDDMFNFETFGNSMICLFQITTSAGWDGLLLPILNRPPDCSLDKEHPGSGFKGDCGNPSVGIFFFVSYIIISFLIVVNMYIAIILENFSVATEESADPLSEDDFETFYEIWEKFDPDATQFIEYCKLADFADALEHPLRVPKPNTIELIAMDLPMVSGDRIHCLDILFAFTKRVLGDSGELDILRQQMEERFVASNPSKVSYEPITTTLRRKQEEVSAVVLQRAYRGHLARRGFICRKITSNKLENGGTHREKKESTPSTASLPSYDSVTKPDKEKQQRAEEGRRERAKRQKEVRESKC

`CC[C@H](C)[C@@H]1NC(=O)[C@@H](NC(=O)CN)CSSC[C@@H]2NC(=O)[C@@H]3CSSC[C@@H](C(=O)N[C@@H](CC(N)=O)C(=O)N4C[C@H](O)C[C@H]4C(=O)N4C[C@H](O)C[C@H]4C(=O)N[C@@H](CC(N)=O)C(=O)N[C@@H](CCC(N)=O)C(=O)O)NC(=O)[C@H](CCCCN)NC(=O)[C@H](Cc4ccccc4)NC(=O)[C@H](CC(N)=O)NC(=O)[C@H](Cc4c[nH]c5ccccc45)NC(=O)CNC(=O)[C@H](CSSC[C@H](NC(=O)[C@H](Cc4ccccc4)NC(=O)[C@H](CO)NC(=O)CNC(=O)[C@H]([C@@H](C)O)NC(=O)[C@H](C)NC1=O)C(=O)N[C@@H]([C@@H](C)O)C(=O)N[C@@H](CC(C)C)C(=O)N[C@@H](CO)C(=O)N[C@@H](CCCCN)C(=O)NCC(=O)N3)NC(=O)[C@H](CC(N)=O)NC(=O)[C@H](CCCCN)NC(=O)[C@H]([C@@H](C)O)NC2=O` [α-1] returned an EC50 of 0.8 ± 0.1 µM.

One may read the EC50 as the concentration needed to bring the measured effect to its halfway point. Read a high EC50 as lower potency in that assay.

For the origin of these results see publication PMC5864730, “Peptide ion channel toxins from the bootlace worm, the longest animal on Earth” (Scientific Reports, 2018).
